Test results from US6630123B1, “Method to enhance tissue accumulation of radiolabeled compounds” (Board of Supervisors of Louisiana State University and …, priority 1997, dated 2003).

Columns and labels:
[1] = cited from earlier work
[2] = system: tumor in the left side of the neck (metastatic small cell carcinoma); conditions: in vivo
[3] = system: tumor in the left side of the neck (metastatic small cell carcinoma); assay: External gamma dose rate over neck tumor after bolus injection or infusion (ion chamber survey meter)

SMILES: C[C@@H](O)[C@@H]1NC(=O)[C@H](CCCCN)NC(=O)[C@@H](Cc2c[nH]c3ccccc23)NC(=O)[C@H](Cc2ccccc2)NC(=O)[C@@H](NC(=O)[C@H](N)Cc2ccccc2)CSSC[C@@H](C(=O)N[C@H](CO)[C@@H](C)O)NC1=O [octreotide acetate]
- biologic half-life [1]: 90-120 min

SMILES: C[C@@H](O)[C@@H]1NC(=O)[C@H](CCCCN)NC(=O)[C@@H](Cc2c[nH]c3ccccc23)NC(=O)[C@H](Cc2ccccc2)NC(=O)[C@@H](NC(=O)[C@@H](Cc2ccccc2)NC(=O)CN2CCN3CCN(CC(=O)O)CC(=O)[O][111In]([O]C(=O)C3)[O]C(=O)C2)CSSC[C@@H](C(=O)N[C@H](CO)[C@@H](C)O)NC1=O [^111In-pentetreotide, ^111In-DTPA-D-Phe^1-octreotide]
- highest mR/mCi ratio of Infusion Dose 1 relative to highest ratio from the bolus injection [2]: almost five times higher
- ratio of radioligand accumulated per mCi delivered ([3]; Infusion 1): 66 mR/mCi
- ratio of radioligand accumulated per mCi delivered ([3]; Infusion 2): 96 mR/mCi
- ratio of radioligand accumulated per mCi delivered ([3]; Infusion 3): 121 mR/mCi
- ratio of mR accumulated per mCi delivered ([3]; bolus injection): 23 mR/mCi
